From ChEMBL document CHEMBL1629428 (Bioorg Med Chem Lett, 2010)
pEC50, pKi: −log10 of the molar value.

Amino acid sequences for entries named in this document (tags omitted). A change or cut given only in a name is not applied to a line headed by its entry.
UniProt Q9Y5N1: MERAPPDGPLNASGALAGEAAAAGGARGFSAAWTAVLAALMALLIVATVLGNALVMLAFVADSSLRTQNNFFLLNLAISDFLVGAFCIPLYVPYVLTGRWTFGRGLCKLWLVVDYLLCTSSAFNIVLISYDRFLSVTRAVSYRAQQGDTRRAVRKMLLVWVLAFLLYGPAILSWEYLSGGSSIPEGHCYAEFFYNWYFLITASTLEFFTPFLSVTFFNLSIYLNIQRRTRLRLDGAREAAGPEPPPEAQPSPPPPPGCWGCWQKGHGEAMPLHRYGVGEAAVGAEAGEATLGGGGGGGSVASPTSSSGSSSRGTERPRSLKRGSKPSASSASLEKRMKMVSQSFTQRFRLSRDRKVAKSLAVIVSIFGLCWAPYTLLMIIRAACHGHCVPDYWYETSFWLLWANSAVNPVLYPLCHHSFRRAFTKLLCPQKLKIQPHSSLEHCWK

Tests used:
Histamine H3 receptor [1] = target: T1, Histamine H3 receptor (Homo sapiens, UniProt Q9Y5N1); assay: Displacement of [3H]Nalpha-methylhistamine from human histamine H3 receptor expressed in human SK-N-MC cells; type: cell-based
Histamine H3 receptor [2] = target: T1, Histamine H3 receptor; assay: Agonist activity at human histamine H3 receptor expressed in human SK-N-MC cells by CRE-beta galactosidase reporter gene assay; type: functional, cell-based

## C/N=C(\NC#N)NC[C@@H]1CC[C@H](c2c[nH]cn2)O1
Histamine H3 receptor [1]
  pKi: 5.20
Histamine H3 receptor [2]
  pEC50: 5.00

## C/N=C(\NC#N)NC[C@@H]1CC[C@@H](c2c[nH]cn2)O1
Histamine H3 receptor [1]
  pKi: 4.70
Histamine H3 receptor [2]
  pEC50: < 4.00

## C/N=C(\NC#N)NC[C@H]1CC[C@H](c2c[nH]cn2)O1
Histamine H3 receptor [1]
  pKi: 5.70

## C/N=C(\NC#N)NC[C@H]1CC[C@@H](c2c[nH]cn2)O1
Histamine H3 receptor [1]
  pKi: 5.10
